# Only a part is listed here, and it is no random draw. Activity calls are given as the source filed them. The calls were made as follows: active = hit-call score of the fitted dose curve at least 0.9, where 1 is the maximum; inactive = score below 0.9.
# Assay: ATG_VDRE_CIS: Attagene CIS-FACTORIAL HepG2 Assay for human Vitamin D Receptor Element (VDRE) (AID 2282968)
# Details: HepG2 VDRE cis-reporter transcription, actives raise or lower the signal
# Method: ATG_CIS is a cell-based, multiplexed-readout assay that uses HepG2, a human liver cell line, with measurements taken at 24 hours after chemical dosing in a 24-well plate.ATG_VDRE_CIS is one of 52 assay component(s) measured or calculated from the ATG_CIS assay. It is designed to make measurements of mRNA induction, a form of inducible reporter, as detected with fluorescence intensity signals by Reverse transcription polymerase chain reaction (RT-PCR) and Capillary electrophoresis technology.Data from the assay component ATG_VDRE_CIS was analyzed into 1 assay endpoint. This assay endpoint, ATG_VDRE_CIS, was analyzed with bidirectional fitting relative to DMSO as the negative control and baseline of activity. Using a type of inducible reporter, measures of mRNA for gain or loss-of-signal activity can be used to understand the reporter gene at the transcription factor-level as they relate to the gene VDR. Furthermore, this assay endpoint can be referred to as a primary readout, because this assay has produced multiple assay endpoints where this one serves a reporter gene function. To generalize the intended target to other relatable targets, this assay endpoint is annotated to the nuclear receptor intended target family, where the subfamily is non-steroidal.
# Human liver HepG2 cells are transiently transfected with multiple reporter transcription units (MRTUs) in 6-well plates using FuGene 6 reagent (Roche; 3 ml FuGene/1 mg DNA). The MRTU constructs are regulated by a cis-regulating element (promoter). […] A major difference between the CIS and TRANS system is that in CIS activities of endogenous TFs are measured, whereas the TRANS assay evaluates changes in activities of exogenous, chimeric NR-Gal4 proteins. […] At the end of 24 hour incubation, total RNA was isolated using TriZol reagent (Invitrogen). The isolated RNA is then reverse-transcribed using oligo(dT) primer and Mo-MLV reverse transcriptase (Invitrogen) with DNAse I (Ambion) treatment for 30 min. The one-tenth of the produced cDNA was amplified by PCR using Taq DNA polymerase (Invitrogen) and two reporter sequence-specific primers. The PCR products were fluorescently labeled by primer extension with 6-arboxyfluorescein (6-FAM) 5'-labeled reporter sequence-specific primer (2 min at 95 C, 20 s at 68 C and 10 min at 72 C) and these products were digested with 5U of HpaI (New England Biolabs) for 2h at 37 C. The fragments were purified using Qiaquick PCR columns (Qiagen), analyzed on an ABI 3130xL genetic analyzer (Applied Biosystems) with peak positions identified by using a set of X-rhodamine (ROX)-labeled MapMarker1000 molecular weight standards (BioVentures). The raw capillary electrophoresis data was processed using Attagraph software (Attagene).
row,Compound,outcome
1,CN(C)CCCl,inactive
2,Cc1ccc([N+](=O)[O-])c([N+](=O)[O-])c1,inactive
3,Cc1ccc([N+](=O)[O-])cc1[N+](=O)[O-],inactive
4,Cc1c([N+](=O)[O-])cccc1[N+](=O)[O-],inactive
5,N#CBr,inactive
6,O=[N+]([O-])c1cccc([N+](=O)[O-])c1,inactive
7,CC(C)N(CCO)C(C)C,inactive
8,Cc1cccc([N+](=O)[O-])c1[N+](=O)[O-],inactive
9,COP(C)(=O)OC,inactive
10,O=[N+]([O-])OCC(CO[N+](=O)[O-])(CO[N+](=O)[O-])CO[N+](=O)[O-],inactive
11,CC(C)OP(C)(=O)OC(C)C,inactive
12,COc1ccc([N+](=O)[O-])cc1[N+](=O)[O-],inactive
